Target: R132H mutant IDH1 enzyme (Homo sapiens (Human), UniProt O75874, R132H)
Test: R132H IDH1 Enzymatic Assay
Assay type: biochemical
Settings: R132H mutant IDH1 enzyme 1.5 nM final; luminescence readout; read-out: IC50

Chains of the proteins cited; added tags and fusions are not shown.
UniProt O75874, whole entry R132H: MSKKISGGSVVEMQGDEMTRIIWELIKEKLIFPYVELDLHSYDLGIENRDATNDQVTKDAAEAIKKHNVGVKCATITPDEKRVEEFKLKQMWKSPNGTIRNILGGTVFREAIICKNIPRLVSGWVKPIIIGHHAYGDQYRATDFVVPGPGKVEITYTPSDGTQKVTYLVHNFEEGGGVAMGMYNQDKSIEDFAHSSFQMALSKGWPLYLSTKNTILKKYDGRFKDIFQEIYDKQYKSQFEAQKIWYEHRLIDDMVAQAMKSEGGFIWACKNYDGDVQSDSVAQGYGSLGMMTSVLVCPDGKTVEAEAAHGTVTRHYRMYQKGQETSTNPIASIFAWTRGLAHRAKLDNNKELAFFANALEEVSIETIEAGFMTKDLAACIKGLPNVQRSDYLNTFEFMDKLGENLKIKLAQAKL

IC50	Compound
23 nM	CC(C)O[C@H]1CC[C@H](C(=O)N2Cc3cccnc3Nc3ccc(N4C[C@@H]5CC[C@@H](C4)O5)cc32)CC1 [Example 252, 6-{[trans-4-(1-methylethoxy)cyclohexyl]car-bonyl}-8-[(1S,5S)-8-oxa-3-azabicyclo[3.2.1]oct-3-yl]-6,11-dihydro-5H-pyrido[2,3-b][1,5]benzodiazepine]
215 nM	CO[C@H]1CC[C@H](C(=O)N2Cc3cccnc3Nc3ccc(N4CCO[C@@H](c5ccccc5)C4)cc32)CC1 [Example 256, 6-[(trans-4-methoxycyclohexyl)carbonyl]-8-[(2S)-2-phenylmorpholin-4-yl]-6,11-dihydro-5H-pyrido[2,3-b][1,5]benzodiazepine]
567 nM	CO[C@H]1CC[C@H](C(=O)N2Cc3cccnc3Nc3ccc(N4CCOC(C)C4)cc32)CC1 (stereo partly drawn) [Example 255, 6-[(trans-4-methoxycyclohexyl)carbonyl]-8-(2-methylmorpholin-4-yl)-6,11-dihydro-5H-pyrido[2,3-b][1,5]benzodiazepine]
24 nM	CCO[C@H]1C[C@@H](C(=O)N2Cc3cccnc3Nc3ccc(N4C[C@H]5CC[C@@H]4CO5)cc32)C[C@@H]1F [Example 158, 6-{[(1R,3S,4S)-3-ethoxy-4-fluorocyclopentyl]carbon-yl}-8-[(1R,4R)-2-oxa-5-azabicyclo[2.2.2]oct-5-yl]-6,11-dihydro-5H-pyrido[2,3-b][1,5]benzodiazepine]
722 nM	COC1(C)CN(c2ccc3c(c2)N(C(=O)[C@H]2CC[C@H](OC)CC2)Cc2cccnc2N3)C1 [Example 262, 6-[(trans-4-methoxycyclohexyl)carbonyl]-8-(3-methoxy-3-methylazetidin-1-yl)-6,11-dihydro-5H-pyrido[2,3-b][1,5]benzodiazepine]
4 nM	CC(C)O[C@H]1CC[C@H](C(=O)N2Cc3cccnc3Nc3ccc(C4(C#N)CCOCC4)cc32)CC1 [Example 138, 4-(6-{[trans-4-(1-methylethoxy)cyclohexyl]-carbonyl}-6,11-dihydro-5H-pyrido[2,3-b][1,5]benzodiazepin-8-yl)tetrahydro-2H-pyran-4-carbonitrile]
4 nM	CC(C)O[C@H]1CC[C@H](C(=O)N2Cc3cccnc3Nc3ccc(C4CCC(O)CC4)cc32)CC1 (stereo partly drawn) [Example 395, 4-(6-{[trans-4-(1-methylethoxy)cyclohexyl]carbonyl}-6,11-dihydro-5H-pyrido[2,3-b][1,5]benzodiazepin-8-yl)cyclohexanol]
151 nM	CO[C@H]1CC[C@@H](C(=O)N2Cc3cccnc3Nc3ccc(CN(C)C(C4CC4)C(F)(F)F)cc32)CC1 (relative stereo) [Example 6, 1-Cyclopropyl-2,2,2-trifluoro-N-({6-[(cis-4-methoxycyclohexyl)carbonyl]-6,11-dihydro-5H-pyrido[2,3-b][1,5]benzodiazepin-8-yl}methyl)-N-methylethanamine]
648 nM	CO[C@H]1CC[C@H](C(=O)N2Cc3cccnc3Nc3ccc(-c4ccnnc4)cc32)CC1 [Example 406, 6-[(trans-4-methoxycyclohexyl)carbonyl]-8-pyridazin-4-yl-6,11-dihydro-5H-pyrido[2,3-b][1,5]benzodiazepine]
676 nM	O=C(C1CCC(F)(F)CC1)N1Cc2cccnc2Nc2ccc(N3CCOCC3)cc21 [Example 77, 6-[(4,4-difluorocyclohexyl)car-bonyl]-8-morpholin-4-yl-6,11-dihydro-5H-pyrido[2,3-b][1,5]benzodiazepine]
69 nM	CO[C@H]1CC[C@H](C(=O)N2Cc3cccnc3Nc3ccc(-c4cncs4)cc32)CC1 [Example 177, 6-[(Trans-4-methoxycyclohexyl)carbonyl]-8-(1,3-thiazol-5-yl)-6,11-dihydro-5H-pyrido[2,3-b][1,5]benzodiazepine]
491 nM	CO[C@H]1CC[C@H](C(=O)N2Cc3cccnc3Nc3ccc(N4C[C@H](C)OC[C@H]4C)cc32)CC1 [Example 222, 8-[(2S,5R)-2,5-dimethylmorpholin-4-yl]-6-[(trans-4-methoxycyclohexyl)carbonyl]-6,11-dihydro-5H-pyrido[2,3-b][1,5]benzodiazepine]
11 nM	CC(C)O[C@H]1CC[C@H](C(=O)N2Cc3cccnc3Nc3ccc([C@@H]4COC[C@@H]4C)cc32)OC1 (single isomer, unassigned) [Example 537]
45 nM	CC(C)O[C@H]1CC[C@H](C(=O)N2Cc3cccnc3Nc3ccc(C4OCCOC4C)cc32)OC1 (single isomer, unassigned) [Example 25]
623 nM	CO[C@H]1CC[C@H](C(=O)N2Cc3cccnc3Nc3ccc(N4CCn5nc(C(F)(F)F)nc5C4)cc32)CC1 [Example 268, 6-[(trans-4-methoxycyclohexyl)carbonyl]-8-[2-(trifluoromethyl)-5,6-dihydro[1,2,4]triazolo[1,5-a]pyrazin-7(8H)-yl]-6,11-dihydro-5H-pyrido[2,3-b][1,5]benzodiazepine]
164 nM	CO[C@H]1CC[C@H](C(=O)N2Cc3cccnc3Nc3ccc(-c4ccnn4C)cc32)CC1 [Example 182, 6-[(trans-4-methoxycyclohexyl)carbonyl]-8-(1-methyl-1H-pyrazol-5-yl)-6,11-dihydro-5H-pyrido[2,3-b][1,5]benzodiazepine]
334 nM	CO[C@H]1CC[C@@H](C(=O)N2Cc3cccnc3Nc3ccc(N4CCn5nc(C(F)(F)F)nc5C4)cc32)CC1 [Example 269, 6-[(cis-4-methoxycyclohexyl)carbonyl]-8-[2-(trifluoromethyl)-5,6-dihydro[1,2,4]triazolo[1,5-a]pyrazin-7(8H)-yl]-6,11-dihydro-5H-pyrido[2,3-b][1,5]benzodiazepine]
561 nM	O=C(C1CCCCC1)N1Cc2cccnc2Nc2ccc(N3CCOCC3)cc21 [Example 94, 6-(cyclohexylcarbonyl)-8-morpholin-4-yl-6,11-dihydro-5H-pyrido[2,3-b][1,5]benzodiazepine]
562 nM	CC(C)(C)C1CC(C(=O)N2Cc3cccnc3Nc3ccccc32)C1 (stereo not shown) [Example 54, 6-[(3-tert-butylcyclobutyl)carbonyl]-6,11-dihydro-5H-pyrido[2,3-b][1,5]benzodiazepine]
115 nM	CO[C@H]1CC[C@H](C(=O)N2Cc3cccnc3Nc3ccc(N4C[C@H]5CC[C@@H](C4)O5)cc32)CC1 [Example 290, 6-[(trans-4-methoxycyclohexyl)carbonyl]-8-[(1R,5S)-8-oxa-3-azabicyclo[3.2.1]oct-3-yl]-6,11-dihydro-5H-pyrido[2,3-b][1,5]benzodiazepine]
94 nM	CO[C@H]1CC[C@@H](C(=O)N2Cc3cccnc3Nc3ccc(N4CCOCC4)cc32)C[C@H]1C (single isomer, unassigned) [Example 97]

Compound	IC50
CC(C)(C)O[C@H]1CC[C@@H](C(=O)N2Cc3cccnc3Nc3ccc(N4CC5CCC(C4)O5)cc32)CC1 [Example 310, 6-[(cis-4-tert-butoxycyclohexyl)carbonyl]-8-(8-oxa-3-azabicyclo[3.2.1]oct-3-yl)-6,11-dihydro-5H-pyrido[2,3-b][1,5]benzodiazepine]	26 nM
